In ChEMBL document CHEMBL1131222, “Novel thieno[2,3-d][1,3]oxazin-4-ones as inhibitors of human leukocyte elastase” (J Med Chem, 1998):

Legend:
[1] = molecular target: T1, Neutrophil elastase (Homo sapiens) (UniProt P08246)
T1 sequence (whole entry): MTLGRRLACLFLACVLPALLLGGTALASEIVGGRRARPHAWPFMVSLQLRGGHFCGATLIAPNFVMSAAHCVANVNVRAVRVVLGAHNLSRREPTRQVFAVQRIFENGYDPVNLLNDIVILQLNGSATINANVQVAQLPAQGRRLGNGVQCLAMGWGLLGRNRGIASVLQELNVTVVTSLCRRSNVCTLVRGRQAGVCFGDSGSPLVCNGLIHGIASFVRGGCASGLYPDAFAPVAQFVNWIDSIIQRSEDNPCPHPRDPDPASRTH

[2] = molecular target: T1, Neutrophil elastase (Homo sapiens); assay: Second order rate constant for enzyme-inhibitor complex Human Leukocyte Elastase inhibition was determined
Method in brief: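 Progress-curve assay at 25 °C with HLE purified from human leukocytes, in 50 mM sodium phosphate, 500 mM NaCl, pH 7.8. Substrate was MeOSuc-Ala-Ala-Pro-Val-pNA (200 μM final, 405 nm, 30–75 min) or, for a few inhibitors, Suc-Ala-Ala-Pro-Val-AMC (125 μM final, ex 340/em 460 nm, 4–5 min). At least five inhibitor concentrations were used, or 10 μM alone where solubility limited. Curves were fitted by slow-binding kinetics (k_obs = k_on'[I] + k_off).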

Structure (SMILES)	koff [1]	kon (10e3* M-1 s-1) [2]
CCCOc1nc2sc(C)c(C)c2c(=O)o1	0.628	15.6
CCOc1nc2sc(C)c(C)c2c(=O)o1	1.3	12.2
CCOc1nc2scc(C(C)C)c2c(=O)o1	4.29	76.4
CC(C)Nc1nc2sccc2c(=O)o1	1.34	3.2
CSc1nc2sc(C)c(C)c2c(=O)o1	5.67	16.2
Cc1sc2nc(OCC(C)C)oc(=O)c2c1C	0.292	0.219
CC(C)Nc1nc2sc3c(c2c(=O)o1)CCCC3	2.01	1.39
CCSc1nc2sc(C)c(C)c2c(=O)o1	35.8	1310

Now from value to compound:

koff [1]	kon (10e3* M-1 s-1) [2]	Structure (SMILES)
1.27	93.6	CCOc1nc2sc3c(c2c(=O)o1)CCCC3
0.692	0.239	O=c1oc(SCc2ccccc2)nc2sc3c(c12)CCCC3
3.58	3.54	Cc1sc2nc(SCc3ccccc3)oc(=O)c2c1C
0.515	1.01	CC(C)COc1nc2sc3c(c2c(=O)o1)CCCC3
0.292	1.63	COC(=O)CSc1nc2sc3c(c2c(=O)o1)CCCC3
0.612	3.75	CCN(CC)c1nc2sc3c(c2c(=O)o1)CCCC3
1.42	99.3	CCCOc1nc2sc3c(c2c(=O)o1)CCCC3
